# US12576094B2, “Combination cannabinoid-phenylethanoid formulation for treatment of inflammation and methods related thereto” (Canole LLC, priority 2019, dated 2026)
# Tested on: C-28/I2 chondrocytes
# Test: toxicity screen to establish maximum tolerable concentrations in chondrocytes
# Conditions: 24 hours post-treatment, serum free
# From the text: A clonal derivative of ATCC-certified normal chondrocytes was used for a study to determine cytokine expression. The parent line was originally derived from costal cartilage of an adolescent person. The cell line used is C-28/I2 accession number CVCL_0187. The cells were immortalized via retroviral vector-mediated SV40 Large T antigen expression. Cells were confirmed negative for mycoplasma contamination and genotyped by STR analysis to verify cell identity. This cell line is widely used as a model for studying normal and pathological cartilage repair mechanisms and inflammation.
# The cells were cultured at 37° C. with 5% CO2, DMEM/F12 media supplemented with 10% heat-inactivated fetal bovine serum. Antimicrobials were not added to the media. Cells were maintained between 40 and 80% confluency to avoid terminal differentiation. Cells used for the experiments had been passaged no more than ten times prior to each experiment.
# A series of pilot studies were performed to design the final full-scale experiment. First, a toxicity screen for each test compound was performed to establish maximum tolerable concentrations in this model system. Second, assays were run to establish the optimal means of inducing a pro-inflammatory state in the cell culture system. […]
substance,measurement,value
nicotinamide ribose,maximum tolerable concentration,1 mM
